Like-named read-outs stand apart in the source and are kept apart here.
Target: human κ opioid receptor (Homo sapiens, UniProt P41145)
Assay: [35S]GTPγS binding, stimulation and inhibition of agonist-stimulated binding
Format: biochemical

Protein sequences, listed by entry. Tags and fused reporters are not part of them. Lines headed by an entry give the natural chain unless they say otherwise; changes in a name come on top.
UniProt P41145: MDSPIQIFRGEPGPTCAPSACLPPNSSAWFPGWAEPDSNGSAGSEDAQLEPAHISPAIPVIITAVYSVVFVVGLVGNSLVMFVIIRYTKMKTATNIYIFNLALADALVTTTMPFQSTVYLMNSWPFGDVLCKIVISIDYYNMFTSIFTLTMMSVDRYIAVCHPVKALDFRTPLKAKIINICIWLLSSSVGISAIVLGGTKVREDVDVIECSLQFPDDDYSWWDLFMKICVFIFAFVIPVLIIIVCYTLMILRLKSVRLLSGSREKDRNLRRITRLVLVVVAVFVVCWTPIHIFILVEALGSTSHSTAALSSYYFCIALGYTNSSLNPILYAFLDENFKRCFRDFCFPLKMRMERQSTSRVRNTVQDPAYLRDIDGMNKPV

Row | SMILES | EC50 [nM] | EC50 (Kappa Opioid Receptor, stimulation of [35S]GTPγS binding) [nM]
1 | CC1C2Cc3ccc(C(=O)NCCc4ccc(-c5ccccc5)cc4)cc3C1(C)CCN2CC1CC1 (racemic) [Compound 1, N-(2-[1,1′-biphenyl]-4-ylethyl)-3-(cyclopropylmethyl)-1,2,3,4,5,6-hexahydro-6,11-dimethyl-2,6-methano-3-benzazocine-8-carboxamide, reference compound] | 3 ± 0.5 | 
2 | C[C@H]1C2Cc3ccc(C(N)=O)cc3[C@@]1(C)CCN2CC1CC1 [Compound 2, 8-carboxamidocyclazocine, reference compound] |  | 4.4 ± 0.73

From publication PMC3602279 (Bioorganic & medicinal chemistry letters, 2013)
